{"source": "patent US20080124407A1", "about": "“INHIBITING CYP3A4 INDUCTION” (UNIVERSITY OF WASHINGTON, priority 2006, published 2008)", "origin": "cited, not measured here", "conditions": "human volunteers; cited from earlier work", "data": [{"compound": "CO[C@H]1/C=C/O[C@@]2(C)Oc3c(C)c(O)c4c(O)c(c(/C=N/N5CCN(C)CC5)c(O)c4c3C2=O)NC(=O)/C(C)=C\\C=C\\[C@H](C)[C@H](O)[C@@H](C)[C@@H](O)[C@@H](C)[C@H](OC(C)=O)[C@@H]1C", "note": "[RIF, Rifampicin]", "values": [{"measurement": "decrease in the AUC of the plasma concentration-time curve of orally administered midazolam", "value": 95, "unit": "%"}]}]}
